Measurements taken from ChEMBL document CHEMBL2434899, “Peripherally selective diphenyl purine antagonist of the CB1 receptor” (J Med Chem, 2013).

Species on record: Homo sapiens
Test: Selectivity ratio of Ki for CB2 receptor (unknown origin) to Ki for human CB1 receptor

Which Ratio Ki does the source give for `O=C(CC1CCCCC1)NC1CCN(c2ncnc3c2nc(-c2ccccc2Cl)n3-c2ccc(Cl)cc2)CC1` here?
Its Ratio Ki is 1220.
